Structures are written as SMILES.

In one test the test system is benzodiazepine receptor. The settings on record: read-out: IC50, binding to the benzodiazepine receptor; cited from Eur. J. Pharmacol., 162, 273-280, 1989; cited from earlier work.
Test [1] has as its system gastric-acid secretion caused by the stimulus of pentagastrin. The test can be described thus: Depression of gastric-acid secretion caused by the stimulus of pentagastrin. As to conditions: SD rats, urethane anesthetized, i.v. test drug, pentagastrin 15 μg/kg/hr i.v.

`Cc1cccc(NC(=O)N[C@@H]2N=C(c3ccccc3)c3ccccc3N(C)C2=O)c1`: the IC50 with benzodiazepine receptor is 1.2 µM. Further, the “Depression of gastric-acid secretion; ED50” value in test [1] was 4.2 µmol/kg.

The record behind these values is patent US5541182A, “Benzodiazepine aryl urea derivatives” (Yamanouchi Pharmaceutical Co., Ltd., priority 1990, dated 1996).
